Data: ChEMBL document CHEMBL1145194, “A bivalent ligand (KDAN-18) containing delta-antagonist and kappa-agonist pharmacophores bridges delta2 and kappa1 opioid receptor phenotypes” (J Med Chem, 2005)

Legend:
[1] = system: Mus musculus; assay: Ratio of effective dose of compound producing agonistic activity in presence and absence of naltriben (50 pmol) upon intrathecal administration in mouse tail flick assay
[2] = system: Mus musculus; assay: Ratio of effective dose of compound producing agonistic activity in presence and absence of norbinaltorphimine (2.5 pmol) upon intrathecal administration in mouse tail flick assay
[3] = system: Mus musculus; assay: Ratio of effective dose of compound producing agonistic activity in presence and absence of benzylidenenaltrexone (25 pmol) upon intrathecal administration in mouse tail flick assay

SMILES: CN(C(=O)Cc1ccc(Cl)c(Cl)c1)C1CCCCC1N1CCCC1 (stereo not drawn)
- ED50 Ratio [1]: 0.81
- ED50 Ratio [2]: 4.23
- ED50 Ratio [3]: 0.94
